Assay results from publication PMC10666356, “circ-hnRNPU inhibits NONO-mediated c-Myc transactivation and mRNA stabilization essential for glycosylation and cancer progression” (Journal of Experimental & Clinical Cancer Research : CR, 2023).

Molecular target: T1, MBP-tagged NONO (non-POU domain containing octamer binding) protein, full-length, recombinant (human, UniProt Q15233 1-471)
T1 construct: also called p54nrb; source: purified recombinant protein
T1 sequence (looked up): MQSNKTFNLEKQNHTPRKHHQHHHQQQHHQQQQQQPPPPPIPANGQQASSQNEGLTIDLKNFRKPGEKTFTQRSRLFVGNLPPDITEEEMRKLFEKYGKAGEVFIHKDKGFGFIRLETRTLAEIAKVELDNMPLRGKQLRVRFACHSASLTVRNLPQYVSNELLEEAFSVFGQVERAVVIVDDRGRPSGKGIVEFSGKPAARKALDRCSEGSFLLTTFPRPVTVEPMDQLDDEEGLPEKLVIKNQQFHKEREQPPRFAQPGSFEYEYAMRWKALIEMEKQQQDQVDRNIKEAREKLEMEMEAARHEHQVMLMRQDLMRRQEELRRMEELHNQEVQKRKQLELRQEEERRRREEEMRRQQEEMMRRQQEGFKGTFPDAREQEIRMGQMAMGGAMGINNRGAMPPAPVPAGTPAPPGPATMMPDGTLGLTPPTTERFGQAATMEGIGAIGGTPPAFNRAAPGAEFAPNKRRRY
Assay: co-IP; purified recombinant GST-tagged c-Myc and MBP-tagged NONO, full-length or truncations, mixed in vitro; co-IP and western blot with GST-tag or MBP antibodies; also with or without in vitro generated circ-hnRNPU, which attenuated the interaction
Settings: both partners purified

B1: GST-tagged c-Myc protein, full-length, recombinant (natural protein, human, UniProt P01106-2 1-454, looked up)
chain: MDFFRVVENQQPPATMPLNVSFTNRNYDLDYDSVQPYFYCDEEENFYQQQQQSELQPPAPSEDIWKKFELLPTPPLSPSRRSGLCSPSYVAVTPFSLRGDNDGGGGSFSTADQLEMVTELLGGDMVNQSFICDPDDETFIKNIIIQDCMWSGFSAAAKLVSEKLASYQAARKDSGSPNPARGHSVCSTSSLYLQDLSAAASECIDPSVVFPYPLNDSSSPKSCASQDSSAFSPSSDSLLSSTESSPQGSPEPLVLHEETPPTTSSDSEEEQEDEEEIDVVSVEKRQAPGKRSESGSPSAGGHSKPPHSPLVLKRCHVSTHQHNYAAPPSTRKDYPAAKRVKLDSVRVLRQISNNRKCTSPRSSDTEENVKRRTHNVLERQRRNELKRSFFALRDQIPELENNEKAPKVVILKKATAYILSVQAEEQKLISEEDLLRKRREQLKHKLEQLRNSCA
notes: c-Myc, human; 1365 bp fits 454 codons and a stop, the 454-residue form; The isoform is inferred from the printed cDNA length only; source: purified recombinant protein
Does B1 bind?
Result: binds
